# Results from patent US11649222B2, “Compounds” (UNIVERSITETET I OSLO, priority 2016, dated 2023).
# Read-outs that look alike come from different tables or passages of the source.
# How the values were obtained:
# K. pneumoniae K66-45 = assay type: cell-based; conditions: inhibitor 25 mg/L
# Protocol: After plating and grown overnight at 37° C., only single colonies, ignoring any touching the edges of the plate, were counted.
# 10^9 CFU K66-45 (Mueller-Hinton broth, no selection) was plated and grown overnight, 37° C. Only single colonies, ignoring any touching the edges of the plate, were counted.
# [1] = In vivo toxicity in healthy mice; parameters: species or system Balb/c mice; conditions: ± SEM
# Protocol: Female Balb/c mice (4 weeks old, approximately 20 g, Charles River, L'Arbresle, France) acclimatized 4 days in the animal facility before initiation of experiments. […] Individual weights were followed four days a week. Relative weight was calculated as the ratio between the weight of the day and the weight of the first day. The protocol for experiments in mice was approved by the University of Lyon Animal Ethics Committee. Toxicity experiments were performed by Antineo (www.antineo.fr).
structure (smiles),measurement,setting,value
"CN(C[C@H](O)[C@@H](O)[C@H](O)[C@H](O)CO)C(=O)c1ccc(CN(Cc2ccccn2)Cc2ccccn2)nc1 [Example 26, 6-((bis(pyridin-2-ylmethyl)amino)methyl)-N-methyl-N-((2S,3R,4R,5R)-2,3,4,5,6-pentahydroxyhexyl)nicotinamide]",RF - no of colonies,K. pneumoniae K66-45; MEM 1 mg/L,74 colonies
same,RF - no of colonies,K. pneumoniae K66-45; MEM 2 mg/L,35 colonies
same,Relative weight of mice,"[1]; Day 1, treatment 4 mg/kg intraperitoneally",100 ± 0%
same,Relative weight of mice,"[1]; Day 8, treatment 8 mg/kg",101 ± 0%
same,Relative weight of mice,"[1]; Day 16, treatment 16 mg/kg",105 ± 0%
same,Relative weight of mice,"[1]; Day 22, treatment 32 mg/kg",105 ± 0%
same,Relative weight of mice,"[1]; Day 29, treatment 64 mg/kg",106 ± 0%
same,Relative weight of mice,"[1]; Day 36, treatment 120 mg/kg",109 ± 0%
same,Relative weight of mice,"[1]; Day 43, no injection, reporting",107 ± 0%
